Screening results (PubChem)
Rango complex inh = inhibitors of Rango-importin beta complex formation. Potency, µM (titrated, usually from 92.2 µM), for inactives: top-dose inhibition of complex formation. Q14974. Rango CFP/YFP FRET sensor + importin beta, 45 min. hit rate 0.031% among 340,000;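 also: potency is read from the fitted curve at half-maximal effect; 0% = DMSO wells and 100% = buffer wells lacking importin beta; nearly all actives have a fitted effect of over 15% in size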
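Inhibition scored from the CFP 486 nm/YFP 530 nm FRET ratio 45 min after adding 0.125 microM importin beta to 50 nM Rango biosensor preincubated 5 min with compound (room temperature, PBS with DTT, Tween-20, BSA). No-importin wells as positive control.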
KCNH2 3.1 block = KCNH2 3.1 (human) potassium channel inhibition. U2OS KCNH2 3.1, thallium flux FluxOr; active compounds read low. activity change, % (tested at about 1.8 µM). hit rate 0.95% among 340,000. AID 720553;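 active = maximum activity change below -70%; inconclusive = maximum activity change from -70% to -50%; inactive = maximum activity change above -50%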;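 also: thallium influx rate constant from kinetic fluorescence after stimulation buffer; % is scaled to controls: 0 for no effect and ±100 for the full control effect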
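Normalized rate constant (relative to positive and negative DMSO controls) derived from a 2 min kinetic fluorescence read after stimulation; U2OS cells expressing the 3.1 isoform via virus at 1.77 x 10^8 /mL.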
hERG WT inh = KCNH2 (human, wildtype) channel inhibition. Q12809. U2OS, BacMam KCNH2, thallium flux FluxOr; active compounds read low. activity change, % at 1.84 µM. hit rate 0.37% among 340,000. AID 720551;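 active = maximum activity change below -70%; inconclusive = maximum activity change between -70% and -50%; inactive = maximum activity change above -50%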; also: % is scaled to controls: 0 for no effect and ±100 for the full control effect
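U2OS cells were transduced with wild-type KCNH2 virus (2.03 x 10^8 / mL) for 4 h at room temperature, then cultured overnight at 37 C. Thallium flux was read with FluxOr dye. Rate constants were normalized to DMSO controls.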
Rango release inh = prevents RanGTP from dissociating the Rango-importin beta complex; Biochemical FRET Rango-importin beta, RanGTP-induced dissociation; Potency, µM (series often up to 46.1 µM), inactives show top-dose activity change, negative = inhibition; hit rate 0.071% among 340,000; O95149+P62826; also: potency is read from the fitted curve at half-maximal effect; % of control where 0% means no effect; nearly all actives have a fitted effect of over 45% in size
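Rango FRET biosensor (snurportin-1 IBB flanked by N-terminal EYFP and C-terminal CFP10) at 0.1 uM, with 0.25 uM importin beta in PBS, 1mM DTT, 0.02% Tween-20, 0.1% BSA. 0.6 uM Ran, 2mM GTP and 0.2 uM RCC1 were then added for 45 min at room temperature. Inhibition read as loss of FRET rise.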
* = called active by the depositor; ? = inconclusive; . = not tested or not shown. Sampled rows, rich in hits. Any-hit rate of the full collection: about 1.3%. Unless noted, calls follow the shape of the full dose curve.

Field names – A = Rango complex inh; B = KCNH2 3.1 block; C = hERG WT inh; D = Rango release inh
> Fc1cccc(Cc2noc(CN3CCN(C4CCc5ccccc5C4)CC3)n2)c1 (centres undefined)
  A = -1%	B = -85*	C = -24	D = 0%

> Fc1cccc(Cc2noc(CN3CCCN(C4Cc5ccccc5C4)CC3)n2)c1
  A = -3%	B = -91*	C = -136*	D = 2%

> COc1ccc(Cc2noc(CN3CCN(C4CCc5ccccc5C4)CC3)n2)cc1OC (centres undefined)
  A = 2%	B = -7	C = 5	D = -7%

> NS(=O)(=O)c1ccc(CCNC(=O)COC(=O)C2CCC2)cc1
  A = -1%	B = -8	C = 0	D = 1%

> O=C(N/N=C/C(Cl)=C/c1ccccc1)c1ccc2c(c1)OCO2
  A = -1%	B = -6	C = -8	D = -15%

> CCCCn1c(SCC(=O)NC2CCCC2)nnc1-c1ccco1
  A = 1%	B = 4	C = -11	D = -22%

> C/C=C/C=C\C(=O)Nc1cccc(C2=NOC3(C2)C[C@H](C(N)=O)N(C(=O)/C=C/C)C3)c1 (some centres undefined)
  A = 0%	B = -177*	C = -2	D = 3%

> CCc1ccc(NC(=O)NCC2CCN(Cc3cccc(Cl)c3)CC2)cc1
  A = 2%	B = -91*	C = 16	D = -8%

> Cc1ccc(NC(=O)NCC2CCN(Cc3cccc(Cl)c3)CC2)cc1Cl
  A = ?	B = ?	C = 5	D = 1%

> Cc1ccc(NC(=O)NCC2CCN(Cc3cc(C)ccc3Cl)CC2)c(C)c1
  A = -2%	B = -23	C = -151*	D = -7%

> CCOc1cccc(/C=N/NC(=S)Nc2cc(S(=O)(=O)N3CCOCC3)ccc2N2CCOCC2)c1O
  A = ?	B = -16	C = 1	D = 3.7µM*

> COc1ccc2ccccc2c1/C=N/NC(=S)Nc1cc(S(=O)(=O)N2CCOCC2)ccc1N1CCOCC1
  A = ?	B = 4	C = -12	D = -12%

> COc1ccc(C2=NS(=O)(=O)N(C)C(C(=O)N(C)Cc3ccccc3)=C2)cc1OC
  A = ?	B = -2	C = 3	D = ?

> Cc1cc(N2CCCC2)nc2ccc(NC(=S)NCCCN3CCC(C)CC3)cc12
  A = 3%	B = 1	C = -4	D = 15µM*

> CCN1CCN(c2cc(C)c3cc(NC(=S)N(C)Cc4ccccc4)ccc3n2)CC1
  A = 0%	B = -70*	C = -7	D = -14%

> CCOC(=O)c1sc(N)nc1C(F)(F)F
  A = 0%	B = -15	C = -7	D = -6%

> CC(=O)Nc1ccc(S(=O)(=O)Nc2c(NC3CCCCC3)c3ccccc3oc2=O)cc1
  A = 1%	B = -2	C = 8	D = -2%

> CCc1ccc(C2=NN(C(=O)CCC(=O)O)C(c3cccs3)C2)cc1 (centres undefined)
  A = 1%	B = -4	C = -11	D = 9%

> CC(=NO)c1ccc2c(c1)Cc1cc([N+](=O)[O-])ccc1-2
  A = -1%	B = 13	C = -45	D = 2%

> CC(O)CN(CC(C)O)c1ccc2c(c1)Cc1cc([N+](=O)[O-])ccc1-2 (centres undefined)
  A = 18µM*	B = -44	C = ?	D = ?

> Nc1c(C(=O)NCc2ccccc2)sc2nc(N3CCOCC3)c3c(c12)CCCC3
  A = ?	B = -72*	C = 4	D = -9%

> O=[N+]([O-])c1ccc(N2CCN(c3ccc([N+](=O)[O-])cc3CO)CC2)c(CO)c1
  A = 6%	B = -89*	C = ?	D = 11%

> N#Cc1cc([N+](=O)[O-])ccc1N1CCN(c2ccccc2O)CC1
  A = -1%	B = 2	C = 0	D = 33%

> Cc1ccccc1C(=O)Nc1cccc(NC(=O)c2cccnc2)c1
  A = -1%	B = -12	C = -78*	D = 0%

> COc1cc(OC)c(C(=O)/C=C/c2ccc(OCc3ccccc3)c(OC)c2)c(OC)c1
  A = 3%	B = -12	C = 19	D = -12%

> CCN(Cc1ccccc1)Cc1ccc(OCc2ccccc2)c(OC)c1
  A = 0%	B = 14	C = -44	D = -8%

> COc1cc(CN(C)CCc2ccccc2)ccc1OCc1ccccc1
  A = -3%	B = -95*	C = 73	D = 7%

> NS(=O)(=O)c1ccc(CCNCc2cc(Br)ccc2OCc2ccccc2)cc1
  A = -1%	B = -70*	C = -28	D = 1%

> COc1ccc(CNCCc2ccc(Cl)cc2)cc1OCc1ccccc1
  A = -2%	B = -71*	C = -2	D = -7%

> COc1ccc(C(=O)C=Cc2ccc(OCc3ccccc3)c(OC)c2)cc1OC
  A = .	B = -72*	C = -11	D = .

> CCOc1cc(CNCCc2ccc(S(N)(=O)=O)cc2)ccc1OCc1ccccc1
  A = 0%	B = .	C = 59	D = 12%

> COc1ccc(S(=O)(=O)Nc2cccc3c2O[C@H](CN(C)C(=O)Nc2c(C)noc2C)[C@@H](C)CN([C@H](C)CO)C3=O)cc1
  A = 0%	B = 13	C = 11	D = 22%

Full records, looked up by structure. Order of values: Rango complex inh | KCNH2 3.1 block | hERG WT inh | Rango release inh
COc1ccc(CNCCc2ccc(Cl)cc2)cc1OCc1ccccc1 as listed: -2% | -71* | -2 | -7%
Cc1ccccc1C(=O)Nc1cccc(NC(=O)c2cccnc2)c1 as listed: -1% | -12 | -78* | 0%
COc1cc(CN(C)CCc2ccccc2)ccc1OCc1ccccc1 as listed: -3% | -95* | 73 | 7%
